Sequences of proteins named here, by UniProt entry; tags and fusion partners are left off.
UniProt P54132, whole entry: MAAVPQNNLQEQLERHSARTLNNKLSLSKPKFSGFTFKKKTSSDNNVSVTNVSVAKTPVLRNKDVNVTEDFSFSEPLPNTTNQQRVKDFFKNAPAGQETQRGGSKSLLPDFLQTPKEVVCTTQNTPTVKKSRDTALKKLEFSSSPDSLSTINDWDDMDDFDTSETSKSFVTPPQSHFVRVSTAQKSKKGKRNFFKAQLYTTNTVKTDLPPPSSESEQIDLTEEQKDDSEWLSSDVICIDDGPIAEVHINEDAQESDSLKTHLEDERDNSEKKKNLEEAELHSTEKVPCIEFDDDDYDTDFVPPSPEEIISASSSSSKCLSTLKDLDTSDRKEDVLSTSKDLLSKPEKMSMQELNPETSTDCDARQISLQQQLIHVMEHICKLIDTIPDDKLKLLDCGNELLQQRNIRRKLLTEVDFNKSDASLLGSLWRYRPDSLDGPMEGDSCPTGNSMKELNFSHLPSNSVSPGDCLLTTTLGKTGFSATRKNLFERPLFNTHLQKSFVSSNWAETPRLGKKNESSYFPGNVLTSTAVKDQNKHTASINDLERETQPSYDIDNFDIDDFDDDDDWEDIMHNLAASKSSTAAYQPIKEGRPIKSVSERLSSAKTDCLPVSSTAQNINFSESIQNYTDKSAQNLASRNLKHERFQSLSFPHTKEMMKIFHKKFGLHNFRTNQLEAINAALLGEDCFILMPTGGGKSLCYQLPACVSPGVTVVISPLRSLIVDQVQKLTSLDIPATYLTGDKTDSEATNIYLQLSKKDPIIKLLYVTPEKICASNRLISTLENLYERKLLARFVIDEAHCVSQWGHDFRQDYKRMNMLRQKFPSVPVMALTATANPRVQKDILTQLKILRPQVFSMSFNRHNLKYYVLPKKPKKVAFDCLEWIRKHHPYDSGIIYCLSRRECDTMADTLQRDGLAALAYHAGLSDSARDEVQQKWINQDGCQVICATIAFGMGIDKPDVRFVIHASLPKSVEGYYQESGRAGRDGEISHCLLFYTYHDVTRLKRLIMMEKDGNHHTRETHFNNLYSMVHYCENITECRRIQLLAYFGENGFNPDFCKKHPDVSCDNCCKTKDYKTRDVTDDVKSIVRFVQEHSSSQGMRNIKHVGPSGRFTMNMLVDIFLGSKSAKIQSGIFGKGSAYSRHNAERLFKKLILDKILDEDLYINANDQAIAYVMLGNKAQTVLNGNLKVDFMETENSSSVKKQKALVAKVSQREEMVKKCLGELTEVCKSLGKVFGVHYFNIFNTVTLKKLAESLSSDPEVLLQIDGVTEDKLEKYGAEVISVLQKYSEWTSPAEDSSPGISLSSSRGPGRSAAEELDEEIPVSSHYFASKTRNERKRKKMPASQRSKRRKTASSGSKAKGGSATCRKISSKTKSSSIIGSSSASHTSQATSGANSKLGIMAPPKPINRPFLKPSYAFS

“And” between values parts separate entries of the source, which are not always exact repeats. Identical values can stand only once. The list shows a part of the results, in another mix than the full data. Some of these compounds have results that are not shown, active ones among them. The source made the active and inactive calls. Calls come from the whole dose curve; as a rule, active = well fitted inhibition curve with a large enough effect; inconclusive = small, poorly fitted or top-dose-only effect; inactive = flat fitted curve, though single readings scatter.
Each molecule was assayed against RecQ-like DNA helicase BLM (Homo sapiens) (UniProt P54132) (assay: qHTS Assay for Inhibitors of Bloom's syndrome helicase (BLM)). Details: recombinant BLM DNA unwinding, fluorescence dequenching; at 56.1 µM (top of the series).
With O=C(NCC1(N2CCCCC2)CCCCC1)c1cccc(Br)c1 the activity change, negative = inhibition was inactive: -1.84%.
CCN1CCCC(OC(=O)C2(O)c3ccccc3C=Cc3ccccc32)C1 (stereo not given) was tested, and the activity change, negative = inhibition was inactive: 4.34%.
For Cc1cc(C(=O)NCC2(N3CCCCC3)CCCCC2)ccc1[N+](=O)[O-], the activity change, negative = inhibition was inactive: -3.31%.
CCOc1cccc(C(=O)NCC2(N(C)C)CCCCC2)c1 was tested, and the activity change, negative = inhibition was inactive: 0.89%.
For COc1ccc(C(=O)NCC2(N(C)C)CCCCC2)cc1, the activity change, negative = inhibition was inactive: -2.76%.
In the case of O=C(NCC1(N2CCCCC2)CCCCC1)c1cc(F)c(F)cc1Cl, the activity change, negative = inhibition is reported as inactive: 1.31%.
With C=CCN1CCN(CCOC(=O)C(O)(c2ccccc2)c2ccccc2)CC1 the activity change, negative = inhibition was inactive: 1.18%.
CN1CCCC(OC(=O)C(O)(c2ccccc2)c2ccccc2)C1 (stereo not given) was tested, and the activity change, negative = inhibition was inactive: -0.0408%.
For CCCCOc1ccccc1C(=O)NCC1(N(C)C)CCCCC1, the activity change, negative = inhibition was inactive: 3.17%.
CN(C)c1ccc(C(=O)NCC2(N(C)C)CCCCC2)cc1 was tested, and the activity change, negative = inhibition was inactive: 1.15%.
In the case of CN(C)C1CCCC1OC(=O)C(O)(c1ccccc1)c1ccccc1 (stereo not given), the activity change, negative = inhibition is reported as inactive: -0.285%.
For Cc1ccccc1C(=O)NCC1(N2CCCCC2)CCCCC1, the activity change, negative = inhibition was inactive: 2.68%.
In the case of CN(C)C1(CNC(=O)c2ccccc2[N+](=O)[O-])CCCCC1, the activity change, negative = inhibition is reported as inactive: -0.0535%.
In the case of CN(C)C1(CNC(=O)c2ccccc2F)CCCCC1, the activity change, negative = inhibition is reported as inactive: 1.43%.
In the case of Cc1ccc(C(=O)NCC2(N3CCCCC3)CCCCC2)cc1, the activity change, negative = inhibition is reported as inactive: -0.72%.
With CC(C)N1C(=O)CC2(CCN(CCOC(=O)C(O)(c3ccccc3)c3ccccc3)CC2)C1=O the activity change, negative = inhibition was inactive: -2.62%.
COc1cc(SC)ccc1C(=O)NCC1(N(C)C)CCCCC1 was tested, and the activity change, negative = inhibition was inactive: 2.51%.
With CCN(CC)CC(C)C(C)OC(=O)C(O)(c1ccccc1)c1ccccc1 (stereo not given) the activity change, negative = inhibition was inactive: 1.74%.
CN(C)C1(CNC(=O)c2cccc(Cl)c2)CCCCC1 was tested, and the activity change, negative = inhibition was inactive: 0.186%.
For CN1[C@@H]2CC[C@H]1CC(OC(=O)C(O)(c1ccccc1)c1ccccc1)C2 (stereo not given in full), the activity change, negative = inhibition was inactive: -1.48%.
With O=C(NCC1(N2CCCCC2)CCCCC1)c1cc([N+](=O)[O-])ccc1Cl the activity change, negative = inhibition was inactive: 1.78%.
CN(C)c1cccc(C(=O)NCC2(N(C)C)CCCCC2)c1 was tested, and the activity change, negative = inhibition was inactive: 2.19%.
In the case of CC(C)Oc1ccc(C(=O)NCC2(N(C)C)CCCCC2)cc1, the activity change, negative = inhibition is reported as inactive: 3.42% and inactive: -1.96%.
In the case of COc1ccc(Br)c(C(=O)NCC2(N3CCCCC3)CCCCC2)c1, the activity change, negative = inhibition is reported as inactive: 4.06%.
COc1cc(C(=O)NCC2(N(C)C)CCCCC2)cc(OC)c1OC was tested, and the activity change, negative = inhibition was inactive: 3.32%.
With Cc1cccc(C(=O)NCC2(N(C)C)CCCCC2)c1 the activity change, negative = inhibition was inactive: 0.384%.
In the case of CC(C)COc1ccc(C(=O)NCC2(N(C)C)CCCCC2)cc1, the activity change, negative = inhibition is reported as inactive: -0.91%.
For O=C(OC1CN2CCC1CC2)C(CO)(c1ccccc1)c1ccccc1 (stereo not given), the activity change, negative = inhibition was inactive: 1.47%.
For COc1cccc(C(=O)NCC2(N3CCOCC3)CCCCC2)c1, the activity change, negative = inhibition was inactive: 0.561%.
With O=C(NCC1(N2CCCCC2)CCCCC1)c1cccc(Cl)c1 the activity change, negative = inhibition was inactive: -0.485%.
For COc1ccc(C(=O)NCC2(N(C)C)CCCCC2)cc1Cl, the activity change, negative = inhibition was inactive: 5.42%.
For COc1ccc(Cl)cc1C(=O)NCC1(N(C)C)CCCCC1, the activity change, negative = inhibition was inactive: -1.35%.
With COc1cccc(C(=O)NCC2(N3CCCCC3)CCCCC2)c1 the activity change, negative = inhibition was inactive: 1.61%.
With COc1cc(C(=O)NCC2(N(C)C)CCCCC2)c([N+](=O)[O-])cc1OC the activity change, negative = inhibition was inactive: -6.43%.
CN(C)C1(CNC(=O)c2ccc(Br)cc2)CCCCC1 was tested, and the activity change, negative = inhibition was inactive: -3.54%.

From PubChem BioAssay AID2528 (National Center for Advancing Translational Sciences (NCATS), 2010)
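Note: plate controls were vehicle for no effect and no enzyme for full effect; nearly all actives have a fitted effect of over 35% in size.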
